This passage reports IC50 results from BindingDB's records for doi:10.1021/jm960486n (Eli Lilly, 1997).

Test [1] concerns the target Phospholipase A2 group IB, pancreatic (Homo sapiens) (UniProt P04054). The test can be described thus: Inhibitory activity against human pancreatic Phospholipase A2.
Test [2] is described as follows: Compound was tested for the inhibitory activity against human pancreatic PLA2.

In the case of `Cc1c(CC(N)=O)c2c(OCCCC(=O)O)cccc2n1Cc1ccccc1` [4-(1-Benzyl-3-carbamoylmethyl-2-methyl-1H-indol-4-yloxy)-butyric acid], the IC50 in test [1] and in test [2] was 3.66 µM throughout.
